Assay outcomes (PubChem)
MC4R ag barr = activates human MC4R beta-arrestin recruitment. U2OS MC4R beta-arrestin complementation, luminescence; percent of melanotan II response, DMSO zero. P32245. 360,000 tested, 0.98% active. activation, % at 8.9 µM;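 active = activation above a per-plate cutoff, the mean activation of sample wells on that plate plus 3 SD, cut at about 8% in these data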
MC4R antagonist = human MC4R antagonism in cAMP assay; P32245; MC4R-expressing cells, MTII-stimulated cAMP, LANCE TR-FRET; inhibition, % at 6.5 µM; 360,000 tested, 0.48% active; AID 540295;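 active = inhibition above its plate's cutoff, the mean of tested wells on that plate plus 3 SD, cut at about 29% in these data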
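System – human MC4R-expressing U2OS cells · Also added – Melanotan II · Dosing – one concentration, 6.5 µM nominal · Timing – 30-min compound, 1-h challenge, 1-h detection, room temperature · Measured by – Eu-cAMP/anti-cAMP TR-FRET, emission 671 nm · Replicates – singlicate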
ASAP1 inh = inhibitors of human ASAP1 ArfGAP activity | inhibition, % at 16.5 µM | ASAP1-stimulated ARF1 GTP hydrolysis, GDP FP detection | 360,000 tested, 0.19% active | AID 624377; in the data active = inhibition above about 25%
Yeast UUG start = modulators of start codon recognition fidelity in yeast; AID 602363; hit rate 0.13% among 350,000; activity score, % at 18.7 µM; S. cerevisiae UUG-firefly luciferase reporter, luminescence/redox ratio;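 active = replicate mean at a twofold rise or more, about +100% in these data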;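 note: firefly luciferase made from a UUG start codon reports start codon fidelity; reporter light over untreated wells divided by growth signal over untreated wells; some hits fall short of that in this replicate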
CendR NRP1 mod = NRP-1/CendR interaction modulation | inhibition, % at 25 µM | 360,000 tested, 0.85% active | AID 602438 | FAM-RPARPAR peptide binding to NRP-1, fluorescence polarization | O14786;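 active = inhibition or corrected inhibition above about 18%, plus a signal ratio from 0.5 to 1.5, limit read from the data, passing the limit was not always enough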
ARFGAP1 inhibitor = inhibitors of rat ARFGAP1; Q62848; Arfgap1-stimulated ARF1 GTP hydrolysis, GDP FP detection; inhibition, % at 16.5 µM; 360,000 tested, 0.26% active; AID 651572;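 active = inhibition above a per-plate limit, mean inhibition of low control wells plus 3 SD, cut at about 25% in these data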
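Material – truncated rat Arfgap1 GAP domain · Buffer or medium – HEPES-based buffer, pH 7.5 · Reagent – human ARF1(Δ1-17)-GTP substrate · Dosing – 16.5 µM single point, 1.26% DMSO · Schedule – GTP hydrolysis reaction 2 h at 25 °C · Technique – GDP detection by fluorescence polarization · Benchmarks – No-Arfgap1 wells (100%) versus DMSO full-reaction wells (0%) · Repeats – single replicate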
cAMP nonselect = U2OS forskolin cAMP inhibition counter-screen; parental U2OS, LANCE TR-FRET; 1,600 tested, 26% active; inhibition, % at 6.5 µM; shares compounds with MC4R antagonist;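 active = mean inhibition over triplicates above the low-control well mean plus 3 SD, set per campaign, cut at about 13% in these data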;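 note: signal is single emission at 671 nm which falls as cellular cAMP rises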
MC4R cAMP antag = human MC4R cAMP antagonism confirmation. shares compounds with MC4R antagonist. MC4R-expressing cells, MTII-stimulated cAMP, TR-FRET. inhibition, % at 6.5 µM. 1,600 tested, 27% active. AID 602195; in the data active = inhibition above about 29%
Large screens that a line does not name were inactive (follow-up assays come after a bar, where they were run). Compounds with a hit are over-represented: about 2.3% of the library has one in this group of screens.

O=C(COC(=O)c1cc(S(=O)(=O)N2CCCC2)ccc1O)Nc1ccc(S(=O)(=O)N2CCOCC2)cc1	MC4R antagonist 33 (no result: Yeast UUG start) | cAMP nonselect inactive | MC4R cAMP antag inactive
CCCN1C[C@H](C)[C@@H](OC)CN(C)C(=O)c2ccc(NC(=O)Nc3ccccc3F)cc2OC[C@H]1C	none (no result: MC4R ag barr, MC4R antagonist, ASAP1 inh, CendR NRP1 mod, ARFGAP1 inhibitor)
COc1cccc(C#Cc2ccc3c(c2)O[C@@H](CN(C)C)[C@H](C)CN([C@H](C)CO)S3(=O)=O)c1	none (no result: MC4R ag barr, MC4R antagonist, ASAP1 inh, CendR NRP1 mod, ARFGAP1 inhibitor)
COc1ccc(CN(C)C[C@H]2Oc3c(NC(=O)NC4CCCCC4)cccc3C(=O)N([C@@H](C)CO)C[C@H]2C)cc1	none (no result: MC4R ag barr, MC4R antagonist, ASAP1 inh, CendR NRP1 mod, ARFGAP1 inhibitor)
COc1ccc(COc2cc(-c3cccc(OC)c3)nc3ccc(NC(=O)c4ccc(OC)cc4)cc23)cc1	none
COc1ccc(COc2cc(-c3cccc(OC)c3)nc3ccc(NC(=O)c4cccnc4)cc23)cc1	MC4R antagonist 33 | cAMP nonselect inactive | MC4R cAMP antag inactive
CCCC#Cc1ccc2c(c1)O[C@H](CN(C)C(=O)C1CC1)[C@@H](C)CN([C@@H](C)CO)S2(=O)=O	none (no result: MC4R ag barr, MC4R antagonist, ASAP1 inh, CendR NRP1 mod, ARFGAP1 inhibitor)
Cc1cc(C)c(S(=O)(=O)c2ccc(Cl)cc2)c(Cl)n1	none (no result: Yeast UUG start)
Cc1cc(S(=O)(=O)c2ccc(Cl)cc2)nc(S(=O)(=O)c2ccc(Cl)cc2)c1C#N	MC4R antagonist 39 | cAMP nonselect 29 | MC4R cAMP antag inactive
COc1cccc(N2CCN(c3ncnc4c3[nH]c3ccc(F)cc34)CC2C)c1 (stereo unspecified)	MC4R ag barr 22, MC4R antagonist 40 | cAMP nonselect 26 | MC4R cAMP antag 51
Cc1ccc(S(=O)(=O)N(C)C[C@@H]2OCCCC[C@@H](C)Oc3ccc(NS(=O)(=O)c4ccc(Cl)cc4)cc3C(=O)N([C@@H](C)CO)C[C@@H]2C)cc1	none (no result: MC4R ag barr, MC4R antagonist, ASAP1 inh, CendR NRP1 mod, ARFGAP1 inhibitor)
Cc1noc(NS(=O)(=O)c2ccc(N/C=C\C(=O)c3ccncc3)cc2)c1C	none
NC(N)=NS(=O)(=O)c1ccc(N/C=C\C(=O)c2ccncc2)cc1	MC4R antagonist 31 | cAMP nonselect inactive | MC4R cAMP antag inactive
Cc1c(C(=O)NCCSCc2ccccc2)cccc1[N+](=O)[O-]	MC4R antagonist 35 | cAMP nonselect inactive | MC4R cAMP antag inactive
CO[C@@H]1CN(C)C(=O)c2cc(NC(=O)Nc3ccc(F)cc3)ccc2OC[C@H](C)NC[C@@H]1C	none (no result: MC4R ag barr, MC4R antagonist, ASAP1 inh, CendR NRP1 mod, ARFGAP1 inhibitor)
CN(C)c1ccc(S(=O)(=O)NCC(=O)OCC(=O)Nc2cc(Cl)cc(Cl)c2)cc1[N+](=O)[O-]	MC4R antagonist 31 (no result: Yeast UUG start) | cAMP nonselect 19 | MC4R cAMP antag 30
CN(C)C(=O)c1cn(-c2ccc(Cl)cc2)c(=O)c2ccccc12	MC4R antagonist 32 (no result: Yeast UUG start) | cAMP nonselect inactive | MC4R cAMP antag inactive
CCOC(=O)C1=C(C)N=c2s/c(=C/c3ccc(OCC(=O)O)cc3)c(=O)n2C1c1ccc(F)cc1 (stereo unspecified)	MC4R antagonist 30 | cAMP nonselect inactive | MC4R cAMP antag inactive
CCOC(=O)C1=C(C)N=c2s/c(=C/c3ccc(OCC(=O)O)cc3)c(=O)n2C1c1ccc(SC)cc1 (stereo unspecified)	none (no result: ASAP1 inh, ARFGAP1 inhibitor)
Cc1ccc(S(=O)(=O)N(C)CC(=O)OCC(=O)NC(c2ccccc2)c2ccccc2)cc1	none (no result: Yeast UUG start)
CC(=O)Nc1ccc(S(=O)(=O)N(C)CC(=O)OCC(=O)NNC(=O)c2ccccc2F)cc1	none
Cc1ccc(S(=O)(=O)N(C)CC(=O)OCC(=O)NC(=O)NC(C)C)cc1	MC4R antagonist 29 | cAMP nonselect inactive | MC4R cAMP antag inactive
CC(=O)Nc1ccc(S(=O)(=O)N(C)CC(=O)OCC(=O)NC(C)C23CC4CC(CC(C4)C2)C3)cc1 (stereo unspecified)	MC4R antagonist 30 (no result: Yeast UUG start) | cAMP nonselect inactive | MC4R cAMP antag inactive
Cc1[nH]c(=O)[nH]c(=O)c1S(=O)(=O)Nc1ccc(Cl)c([N+](=O)[O-])c1	none
